Ab-14 heavy chain CDR variants: yeast mating affinities

Reference: Li et al. 2023, doi:10.1038/s41467-023-39022-2. File: FLAb, binding data.

Antigen: PDVDLGDISGINAS, a 14-residue peptide of the SARS-CoV-2 spike HR2 region.

The variants keep the light chain, the linker and the frameworks of Ab-14 (scFv order VH, the linker GGGGSGGGGSGGGGS, VL).
VH: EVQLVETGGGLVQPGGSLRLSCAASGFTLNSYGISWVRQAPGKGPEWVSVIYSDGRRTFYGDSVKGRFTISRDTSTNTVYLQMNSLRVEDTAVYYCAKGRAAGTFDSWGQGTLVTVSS
VL: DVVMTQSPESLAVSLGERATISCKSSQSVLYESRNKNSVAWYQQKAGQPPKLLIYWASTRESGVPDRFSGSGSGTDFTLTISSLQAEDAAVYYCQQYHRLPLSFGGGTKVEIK

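The starting antibody came from a phage panning campaign against this peptide. This is the validation round: designs drawn from the data on random variants, tested in the same kind of assay. Group labels follow the data file (Ctrl: baseline library sampled from a position-specific scoring matrix, with some repeated check sequences; Rand: our label for a block that the file lists under HC and that is probably the random mutants of the ten best first-round binders; En: ensemble of fine-tuned language models; GP: Gaussian process model; GPLM: also part of the Gaussian process libraries; HC: hill climbing; Gen: genetic algorithm; Gibbs: Gibbs sampling; a sequence that several methods proposed may carry one label only). In AlphaSeq, yeast of one mating type display the scFv and yeast of the other type display the target. Pairs that bind mate more often; barcode pairs of the diploids are counted by sequencing. The ratio of observed to expected reads was calibrated, replicate by replicate, on BCL2-family standards whose Kd was known from biolayer interferometry. The assay was run in six technical replicates.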

Positions count from residue 1 of the parent VH; S31E puts E in place of S.
Variants here have at most six changes.
The Kd shown is the geometric mean over detected replicates; a lower Kd is a better binder.
Where no diploid with the target was found in any replicate, the entry reads "no signal": below detection, most likely a poor binder, though not proof of it.
A sequence measured in both rounds can read differently, since the two assays cover different ranges.
Nonspecific signal, from three strains lacking the peptide, appeared in 1% of pairings of all heavy chain designs, centred on 120 nM (5% of these signals below 7.0 nM); values are not corrected for it. Also given: how often the same scFv was detected with the empty control strains.
A sequence that the file lists under several names has all its replicates pooled.
The parent sequence was in this pool as ten entries: three were never detected, three once, and four in most replicates, with averages from 2.2 nM to 240 nM.
The authors' rule: three or more of the six replicates give a measured affinity, fewer mean a poor binder.

changes	group	Kd	seen in	signal with controls
S31E R56G F59H G61T A101E	Rand	24 nM	5/6	0/18
S31E G61S	Ctrl+GPLM_Gen	1.1 nM	12/12	1/36
T28E S31T G61A R100K S107T	GP_Gibbs	1.3 nM	6/6	0/18
T28E R100D A101E S107T	GP_Gibbs	640 pM	6/6	0/18
F27K T28D S63E A101T	GP_Gibbs	8.1 nM	5/6	0/18
T28D Y32F A101T	GP_Gen	2.1 nM	6/6	0/18
T28D R100N S107V	GP_Gen	3.5 nM	6/6	1/18
S31D D54C T58K R100M	Ctrl	no signal	0/6	0/18
T28D A101Q S107E	GP_Gen	9.4 nM	4/6	0/18
S53A G61L A101L A102G	Ctrl	14 nM	2/6	0/18
T28E G61I A101T S107K	GP_Gen	32 nM	5/6	0/18
T28S G61C R100M A101T	GP_Gibbs	86 nM	5/6	0/18
T28D R100H S107L	GP_Gen	2.9 nM	6/6	1/18
G26K T28D R100K A101E	GP_Gen	19 nM	6/6	0/18
T28Q G61A S63Q A101E	GP_Gibbs	3.2 nM	6/6	0/18
T28C S31D G61A R100K S107E	GP_HC	51 nM	2/6	0/18
T28D S31T S63Q A101T	GP_Gen	490 pM	6/6	0/18
T28E G61C A101T	GPLM_Gen	59 nM	6/6	0/18
T28D S31E R100W A101T	GP_Gibbs	790 pM	6/6	0/18
R56M T104R	Ctrl	no signal	0/6	0/18
T28S S31N S53A R100Q	GPLM_Gen	350 pM	6/6	0/18
R56M G61S S63Q R100K A101T	GP_Gibbs	no signal	0/6	0/18
T28W S31D F59M	GP_HC	no signal	0/6	0/18
T28S Y60I G99A S107T	Ctrl	no signal	0/6	0/18
T28G G61A A101N	GP_Gen	1.5 nM	6/6	0/18
S31W G61S A101L S107T	GP_HC	no signal	0/6	0/18
T28S S53A R100Q S107M	GP_Gen	560 pM	6/6	0/18
T28D R100K A101T S107E	GP_Gen	2.0 nM	6/6	0/18
T28D G61A R100N S107D	GP_Gen	610 pM	1/6	0/18
T28D A101H D106N	GP_HC	no signal	0/6	0/18
T28W S31Y I34Y G61L	Ctrl	no signal	0/6	0/18
N30S R100D	Ctrl	21 nM	6/6	1/18
T28E F59Y A101T	GPLM_Gibbs	13 nM	6/6	2/18
S53A Y60I G61A A101F F105Q D106K	Rand	no signal	0/6	0/18
T28D R100V A101E	GPLM_Gibbs	1.8 nM	6/6	1/18
S31D F59M G61H	GPLM_HC	11 nM	5/6	0/18
T28S G61S R100Q S107T	GPLM_Gen	630 pM	6/6	1/18
T28D S31E S53A G61A R100S S107Q	En_HC	370 pM	6/6	0/18
T28D T104C D106N	GPLM_HC	690 pM	6/6	0/18
G26K T28N G61A R100Q	GPLM_Gen	no signal	0/6	0/18
G61I A101T	GPLM_Gen	32 nM	6/6	0/18
T28R G61V R100Q A101L	GP_HC	no signal	0/6	0/18
S31D G61H R100F A102S	Ctrl	150 nM	4/6	1/18
T28Q S31E A101Q S107T	GP_Gen	1.8 nM	6/6	0/18
D106N S107D	Ctrl	no signal	0/6	0/18